Measured values published in paper PMC4166032 (Bioconjugate Chemistry, 2014).
Where two headings read alike, the source gives them in different places.

Target: T1, GST-hPXR-LBD (Homo sapiens, UniProt O75469)
T1 sequence (O75469 146-433 limits assumed): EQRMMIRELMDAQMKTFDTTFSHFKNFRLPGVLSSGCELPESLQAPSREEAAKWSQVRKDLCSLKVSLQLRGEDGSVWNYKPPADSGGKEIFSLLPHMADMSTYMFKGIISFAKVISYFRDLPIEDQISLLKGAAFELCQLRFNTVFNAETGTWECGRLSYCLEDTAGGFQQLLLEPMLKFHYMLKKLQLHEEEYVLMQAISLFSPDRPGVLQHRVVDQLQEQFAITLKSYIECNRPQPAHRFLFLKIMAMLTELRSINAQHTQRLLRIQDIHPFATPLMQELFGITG
Conditions: 30 min

IC50 (read-out: IC50 with 50 nM 20, 50 nM BODIPY FL vindoline (20) probe): 10.4 µM | IC50 (read-out: IC50 with 100 nM 20, 100 nM BODIPY FL vindoline (20) probe, laboratory assay buffer, 1.1% DMSO): 13 µM
Substance: ginkgolide B [ginkgolide B (9)]
